The source of these data is patent publication US20210087291A1 (Hoffmann-La Roche, published 2021).

Like-named read-outs stand apart in the source and are kept apart here.

Assay [1] concerns the target T1, human FolR1 ECD-AcTev-Fcknob-Avi tag + Fc hole, biotinylated monomeric Fc fusion (human, UniProt P0DOX5 223-449 = IgG part).
T1 construct: also called huFolR1; huFolR1-Fc
The assay is described as follows: SPR, monovalent, antibody captured by anti-Fab.

For assay [2], the target named is T1, human FolR1 ECD-AcTev-Fcknob-Avi tag + …. The assay is described as follows: SPR, apparent KD, bivalent binding (avidity).
The target in assay [3] is T2, murine FolR1 ECD-AcTev-Fcknob-Avitag + Fc hole, biotinylated monomeric Fc fusion (murine, UniProt P0DOX5 223-449 = IgG part).
T2 construct: also called muFolR1; murine FolR1-Fc
The assay is described as follows: SPR ProteOn, Fab analyte.

Assay [4] has as its target T1, human FolR1 ECD-AcTev-Fcknob-Avi tag + …. The experiment in a line: SPR ProteOn, Fab analyte.
Assay [5] addresses T2, murine FolR1 ECD-AcTev-Fcknob-Avitag + …. The assay is described as follows: SPR ProteOn, Fab analyte. This is another data set of the same source.

B1: Farletuzumab (antibody, V domains shown)
VH: EVQLVESGGGVVQPGRSLRLSCSASGFTFSGYGLSWVRQAPGKGLEWVAMISSGGSYTYYADSVKGRFAISRDNAKNTLFLQMDSLRPEDTGVYFCARHGDDPAWFAYWGQGTPVTVSS
VL: DIQLTQSPSSLSASVGDRVTITCSVSSSISSNNLHWYQQKPGKAPKPWIYGTSNLASGVPSRFSGSGSGTDYTFTISSLQPEDIATYYCQQWSSYPYMYTFGQGTKVEIKR
Take B1: the Kd in assay [1] came out at 55.3 nM; in assay [2] it was 0.73 nM.

B2: 14E4 Fab (Fab, V domains shown)
VH: not shown
VL: EIVLTQSPGTLSLSPGERATLSCRASQSVSSSYLAWYQQKPGQAPRLLIYGASSRATGIPDRFSGSGSGTDSTLTISRLEPEDFAVYYCQQPTSSPITFGQGTKVEIK
For the molecule B2, in assay [3], the Kd was 6.09 nM.

B3: 19E5 Fab (Fab, V domains shown)
VH: QVQLVQSGAEVKKPGASVKVSCKASGYTFTSYYMHWVRQAPGQGLEWMGIINPSGGSTSYAQKFQGRVTMTRDTSTSTVYMELSSLRSEDTAVYYCARGEWRRYTSFDYWGQGTLVTVSS
VL: QAVVTQEPSLTVSPGGTVTLTCGSSTGAVTTSNYANWVQEKPGQAFRGLIGGTNKRAPGTPARFSGSLLGGKAALTLSGAQPEDEAEYYCALWYSNLWVFGGGTKLTVL
In the case of B3, the Kd in assay [4] was found to be 522 nM; in assay [5] it was 19.4 nM.
